Source: patent publication US7166726B2, “Aryl substituted 3,4-dihydroanthracene derivatives having retinoid antagonist or retinoid inverse agonist type biological activity” (Allergan, Inc., priority 1996, dated 2007)

Sequences of proteins named here, by UniProt entry; tags and fusion partners are left off.
UniProt P13631, whole entry, species assumed: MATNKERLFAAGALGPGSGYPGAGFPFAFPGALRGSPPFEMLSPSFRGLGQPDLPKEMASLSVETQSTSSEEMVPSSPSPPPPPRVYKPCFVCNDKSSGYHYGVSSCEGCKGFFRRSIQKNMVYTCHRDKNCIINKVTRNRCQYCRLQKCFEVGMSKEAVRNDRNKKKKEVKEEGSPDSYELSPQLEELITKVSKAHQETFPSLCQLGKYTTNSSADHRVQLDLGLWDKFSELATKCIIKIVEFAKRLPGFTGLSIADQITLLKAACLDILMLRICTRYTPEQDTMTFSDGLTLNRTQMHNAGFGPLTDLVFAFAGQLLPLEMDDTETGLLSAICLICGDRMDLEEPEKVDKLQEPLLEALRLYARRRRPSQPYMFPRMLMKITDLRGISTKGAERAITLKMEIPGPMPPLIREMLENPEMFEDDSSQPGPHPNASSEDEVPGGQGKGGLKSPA
UniProt P10276, whole entry, species assumed: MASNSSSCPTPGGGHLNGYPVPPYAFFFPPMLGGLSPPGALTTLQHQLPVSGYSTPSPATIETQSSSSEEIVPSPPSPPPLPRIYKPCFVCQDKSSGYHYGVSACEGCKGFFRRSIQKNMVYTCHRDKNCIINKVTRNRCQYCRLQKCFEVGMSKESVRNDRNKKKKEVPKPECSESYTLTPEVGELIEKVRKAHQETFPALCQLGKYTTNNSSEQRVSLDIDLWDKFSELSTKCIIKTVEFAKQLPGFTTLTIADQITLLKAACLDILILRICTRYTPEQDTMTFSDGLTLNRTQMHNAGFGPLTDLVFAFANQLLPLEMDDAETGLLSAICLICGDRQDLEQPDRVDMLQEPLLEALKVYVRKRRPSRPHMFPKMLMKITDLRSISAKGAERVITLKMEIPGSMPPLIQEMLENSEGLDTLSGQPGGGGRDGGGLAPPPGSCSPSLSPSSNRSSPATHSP
UniProt P10826, whole entry, species assumed: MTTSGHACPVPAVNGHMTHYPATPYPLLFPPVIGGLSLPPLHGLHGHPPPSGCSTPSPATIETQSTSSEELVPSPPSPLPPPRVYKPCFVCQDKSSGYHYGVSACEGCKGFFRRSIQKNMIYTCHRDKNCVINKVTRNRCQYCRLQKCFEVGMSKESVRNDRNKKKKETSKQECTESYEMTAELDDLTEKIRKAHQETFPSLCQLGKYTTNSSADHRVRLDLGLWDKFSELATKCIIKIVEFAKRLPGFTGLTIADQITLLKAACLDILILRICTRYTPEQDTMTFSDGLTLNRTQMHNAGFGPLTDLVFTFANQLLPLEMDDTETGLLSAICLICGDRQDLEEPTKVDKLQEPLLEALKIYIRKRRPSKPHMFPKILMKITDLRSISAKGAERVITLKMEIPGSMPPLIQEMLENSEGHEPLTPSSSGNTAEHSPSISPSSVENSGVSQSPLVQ

Experiments:
RARγ = RARγ (Homo sapiens, UniProt P13631); test: Ligand binding assay, RARγ; details: read-out: Kd TATγ
Source text: (§1) A holoreceptor transactivation assay and a ligand binding assay which measure the antagonist/agonist like activity of the compounds of the invention, or their ability to bind to the several retinoid receptor subtypes, respectively, are described in published PCT Application No. WO WO93/11755 (particularly on pages 30–33 and 37–41) published on Jun. 24, 1993, the specification of which is also incorporated herein by reference. A description of the holoreceptor transactivation assay is also provided below.
(§2) CV1 cells (5,000 cells/well) were transfected with an RAR reporter plasmid MTV-TREp-LUC (50 ng) along with one of the RAR expression vectors (10 ng) in an automated 96-well format by the calcium phosphate procedure of Heyman et al. Cell 68, 397–406, (1992). For RXRα and RXRγ transactivation assays, an RXR-responsive reporter plasmid CRBPII-tk-LUC (50 ng) along with the appropriate RXR expression vectors (10 ng) was used substantially as described by Heyman et al. above, and Allegretto et al. J. Biol. Chem. 268, 26625–26633. For RXRβ transactivation assays, an RXR-responsive reporter plasmid CPRE-tk-LUC ([…]) along with RXRβ expression vector ([…]) was used as described in above. These reporters contain DRI elements from human CRBPII and certain DRI elements from promoter, respectively. […]

RARα = RARα (Homo sapiens, UniProt P10276); test: Ligand binding assay, RARα
Source text: as §1, §2

RARβ = RARβ (Homo sapiens, UniProt P10826); test: Ligand binding assay, RARβ
Source text: as §1, §2

**Q.** For “4-[1(5-Methyl-thien-2-yl)3,4-dihydro-4,4-dimethyl-anthracen-8-yl]-benzoic acid [Compound 4]”, which Kd (RARγ) is on record?
**A.** 11 nM

**Q.** What about the Kd (RARα) of the same substance?
**A.** 15 nM

**Q.** What about the Kd (RARβ) of the same substance?
**A.** 6 nM
